The values below come from PubChem BioAssay (NCI).

Only a part is listed here, and it is no random draw.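 Single-concentration screen, 48 h exposure, 96-well plates. Endpoint: percent growth. Below 10 = active.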 Active and inactive are the calls of the source.

Test systems include SK-MEL-2 melanoma; SN12C renal; UO-31 renal; TK-10 renal; ACHN renal; CAKI-1 renal; A498 renal; HL-60(TB) leukemia; CCRF-CEM leukemia; MOLT-4 leukemia; SR leukemia; RPMI-8226 leukemia; OVCAR-8 ovarian; OVCAR-5 ovarian; OVCAR-4 ovarian; SK-OV-3 ovarian; IGROV1 ovarian; OVCAR-3 ovarian; HS 578T breast; EKVX NSCLC.
Holding throughout (assay): NCI-60 one-dose screen, 48 h (100 = growth as untreated, 0 = no growth, -100 = all killed)
Common to all, as to details: 10 µM

`CCNC(=O)Cc1ccc(N(CCCl)CCCl)cc1`: the growth was inactive: 122% with SK-MEL-2 melanoma; inactive: 53% with SN12C renal; inactive: 68.8% with UO-31 renal; inactive: 105% with TK-10 renal; inactive: 29.6% in the experiment with ACHN renal; active: 4.06% with CAKI-1 renal. Moreover, the growth in the experiment on A498 renal was inactive: 112%; in the experiment on HL-60(TB) leukemia, inactive: 30.7%; in the experiment on CCRF-CEM leukemia it was inactive: 35.5%; with MOLT-4 leukemia, inactive: 47.2%; in the experiment with SR leukemia, inactive: 19.5%; with RPMI-8226 leukemia it was inactive: 86.2%. For the same compound, the growth was inactive: 82% in the experiment with OVCAR-8 ovarian; inactive: 103% in the experiment with OVCAR-5 ovarian; inactive: 98.3% in the experiment with OVCAR-4 ovarian; inactive: 97.4% in the experiment with SK-OV-3 ovarian; inactive: 67.8% in the experiment on IGROV1 ovarian; inactive: 103% in the experiment with OVCAR-3 ovarian.
On to `O/N=C/c1ccc(N(CCCl)CCCl)cc1`, for which the growth with SK-MEL-2 melanoma was inactive: 115%; with SN12C renal it was inactive: 80.7%; with UO-31 renal, inactive: 86.7%; in the experiment on TK-10 renal, inactive: 105%; with ACHN renal, inactive: 91%; with CAKI-1 renal it was inactive: 38.5%. Further, the growth was inactive: 106% in the experiment with A498 renal; inactive: 57.3% in the experiment on HL-60(TB) leukemia; inactive: 75% with CCRF-CEM leukemia; inactive: 63.3% in the experiment with MOLT-4 leukemia; inactive: 43.7% in the experiment on SR leukemia; inactive: 91% in the experiment with RPMI-8226 leukemia. Further, the growth was inactive: 83.6% in the experiment with OVCAR-8 ovarian; inactive: 103% in the experiment on OVCAR-5 ovarian; inactive: 92.3% in the experiment on OVCAR-4 ovarian; inactive: 104% in the experiment on SK-OV-3 ovarian; inactive: 73.4% with IGROV1 ovarian; inactive: 116% in the experiment on OVCAR-3 ovarian. In addition, in the experiment with HS 578T breast, the growth was inactive: 97.4%.
Take `OCC#CCN(CCCl)CCCl`: the growth is inactive: 104% in the experiment with SK-MEL-2 melanoma; inactive: 96% in the experiment with SN12C renal; inactive: 81.1% in the experiment on UO-31 renal; inactive: 102% in the experiment on TK-10 renal; inactive: 95.8% with ACHN renal; inactive: 72% in the experiment with CAKI-1 renal. The growth was inactive: 95% in the experiment with A498 renal; inactive: 88% in the experiment on HL-60(TB) leukemia; inactive: 60.9% in the experiment on CCRF-CEM leukemia; inactive: 76.6% with MOLT-4 leukemia; inactive: 32.5% in the experiment with SR leukemia; inactive: 94.4% with RPMI-8226 leukemia. The growth in the experiment on OVCAR-8 ovarian was inactive: 89.3%; with OVCAR-5 ovarian, inactive: 107%; with OVCAR-4 ovarian it was inactive: 109%; with SK-OV-3 ovarian, inactive: 99.6%; in the experiment with IGROV1 ovarian, inactive: 72.3%; with OVCAR-3 ovarian, inactive: 110%. The growth in the experiment on HS 578T breast was inactive: 123%.
Turning to `Fc1ccc(CCN(CCCl)CCCl)cc1`, the growth is inactive: 113% in the experiment on SK-MEL-2 melanoma; inactive: 100% with SN12C renal; inactive: 94.7% in the experiment on UO-31 renal; inactive: 119% in the experiment on TK-10 renal; inactive: 100% in the experiment on ACHN renal; inactive: 89% in the experiment with CAKI-1 renal. For the same compound, the growth was inactive: 99.9% in the experiment on A498 renal; inactive: 105% in the experiment with HL-60(TB) leukemia; inactive: 95.1% in the experiment on MOLT-4 leukemia; inactive: 96.6% in the experiment with SR leukemia; inactive: 104% in the experiment on RPMI-8226 leukemia; inactive: 103% in the experiment on OVCAR-8 ovarian. Also, the growth is inactive: 99.4% in the experiment on OVCAR-5 ovarian; inactive: 112% with OVCAR-4 ovarian; inactive: 107% in the experiment with SK-OV-3 ovarian; inactive: 94.6% in the experiment on IGROV1 ovarian; inactive: 117% in the experiment with OVCAR-3 ovarian.
As to `Cc1ccccc1NC1(C#N)CCN(Cc2ccccc2)CC1`, the growth in the experiment with SK-MEL-2 melanoma is inactive: 117%; in the experiment on EKVX NSCLC, inactive: 108%; with SN12C renal, inactive: 108%; with UO-31 renal, inactive: 84.3%; in the experiment with TK-10 renal it was inactive: 118%; with ACHN renal it was inactive: 89.2%. The growth in the experiment with CCRF-CEM leukemia is inactive: 94.6%; in the experiment with RPMI-8226 leukemia, inactive: 104%; in the experiment on OVCAR-8 ovarian, inactive: 102%; with OVCAR-5 ovarian, inactive: 90.8%; in the experiment with OVCAR-4 ovarian it was inactive: 99%; in the experiment on SK-OV-3 ovarian, inactive: 99%. For the same compound, the growth with IGROV1 ovarian is inactive: 100%; with OVCAR-3 ovarian it was inactive: 111%.
On to `Oc1ccc(O)c(CN(CCCl)CCCl)c1`, for which the growth was inactive: 115% with SK-MEL-2 melanoma; inactive: 97.1% with SN12C renal; inactive: 78.4% with UO-31 renal; inactive: 104% in the experiment with TK-10 renal; inactive: 93.5% with ACHN renal; inactive: 77.2% in the experiment with CAKI-1 renal. Moreover, the growth is inactive: 123% with A498 renal; inactive: 79.7% with HL-60(TB) leukemia; inactive: 73.7% with MOLT-4 leukemia; inactive: 63.2% in the experiment on SR leukemia; inactive: 104% in the experiment on RPMI-8226 leukemia; inactive: 97.3% with OVCAR-8 ovarian. The growth in the experiment with OVCAR-5 ovarian was inactive: 108%; with OVCAR-4 ovarian it was inactive: 116%; in the experiment with SK-OV-3 ovarian, inactive: 96.7%; with IGROV1 ovarian, inactive: 67.1%; with OVCAR-3 ovarian, inactive: 96.4%; with HS 578T breast it was inactive: 106%.
In the case of `O=C1CCN(Cc2ccccc2)CC1`, the growth was inactive: 102% in the experiment with EKVX NSCLC; inactive: 104% in the experiment on SN12C renal; inactive: 84.6% with UO-31 renal; inactive: 107% with TK-10 renal; inactive: 117% in the experiment with ACHN renal; inactive: 94.2% in the experiment with CAKI-1 renal. The growth with A498 renal was inactive: 83.7%; in the experiment with HL-60(TB) leukemia, inactive: 101%; with CCRF-CEM leukemia, inactive: 101%; in the experiment with MOLT-4 leukemia, inactive: 80.4%; with SR leukemia, inactive: 99.6%; with RPMI-8226 leukemia, inactive: 95.2%. The growth was inactive: 105% in the experiment with OVCAR-8 ovarian; inactive: 115% in the experiment with OVCAR-5 ovarian; inactive: 101% in the experiment with OVCAR-4 ovarian; inactive: 115% with SK-OV-3 ovarian; inactive: 107% in the experiment with IGROV1 ovarian; inactive: 104% with OVCAR-3 ovarian. For the same compound, the growth with HS 578T breast was inactive: 105%.
Take `CCOC(=O)c1ccc(N(CCCl)CCCl)cc1`: the growth in the experiment on SK-MEL-2 melanoma is inactive: 104%; in the experiment on SN12C renal it was inactive: 103%; in the experiment on UO-31 renal, inactive: 86%; in the experiment with TK-10 renal it was inactive: 111%; in the experiment with ACHN renal it was inactive: 105%; in the experiment with CAKI-1 renal, inactive: 95.4%. Moreover, the growth is inactive: 90.6% with A498 renal; inactive: 84.3% with HL-60(TB) leukemia; inactive: 96.1% in the experiment on CCRF-CEM leukemia; inactive: 82.5% in the experiment on MOLT-4 leukemia; inactive: 86.1% in the experiment with SR leukemia; inactive: 90.4% with RPMI-8226 leukemia. The growth in the experiment on OVCAR-8 ovarian is inactive: 96.8%; in the experiment with OVCAR-5 ovarian it was inactive: 102%; in the experiment on OVCAR-4 ovarian it was inactive: 93.9%; in the experiment on SK-OV-3 ovarian, inactive: 107%; in the experiment on IGROV1 ovarian, inactive: 107%; in the experiment on OVCAR-3 ovarian, inactive: 118%. Also, the growth with HS 578T breast is inactive: 114%.
